In BindingDB's records for US9809582, “Aminoester derivatives” (2017):
pIC50: −log10 of the molar value.

Sequences of proteins named here, by UniProt entry; tags and fusion partners are left off. A change or cut given only in a name is not applied to a line headed by its entry.
UniProt Q07343: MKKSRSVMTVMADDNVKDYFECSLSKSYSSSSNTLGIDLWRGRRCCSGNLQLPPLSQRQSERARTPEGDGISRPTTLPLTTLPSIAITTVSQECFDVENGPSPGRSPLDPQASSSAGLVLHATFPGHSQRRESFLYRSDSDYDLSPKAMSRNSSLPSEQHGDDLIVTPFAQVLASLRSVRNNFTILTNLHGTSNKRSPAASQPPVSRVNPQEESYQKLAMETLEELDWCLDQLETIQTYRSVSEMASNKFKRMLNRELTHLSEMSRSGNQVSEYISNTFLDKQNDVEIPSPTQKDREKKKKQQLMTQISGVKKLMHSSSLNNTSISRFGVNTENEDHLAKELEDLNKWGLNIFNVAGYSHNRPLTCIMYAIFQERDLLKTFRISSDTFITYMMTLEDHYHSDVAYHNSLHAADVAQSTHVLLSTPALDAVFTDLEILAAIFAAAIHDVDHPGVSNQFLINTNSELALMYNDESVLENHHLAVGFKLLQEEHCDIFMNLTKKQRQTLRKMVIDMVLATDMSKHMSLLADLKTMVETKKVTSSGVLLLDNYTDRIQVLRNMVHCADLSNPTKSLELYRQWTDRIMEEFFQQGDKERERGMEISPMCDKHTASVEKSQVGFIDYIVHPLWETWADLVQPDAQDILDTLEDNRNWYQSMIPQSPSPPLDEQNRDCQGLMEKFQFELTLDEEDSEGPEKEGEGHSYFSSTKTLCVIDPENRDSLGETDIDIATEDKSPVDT

Biological target: cAMP-specific 3',5'-cyclic phosphodiesterase 4B (Homo sapiens, UniProt Q07343)

Compound	pIC50
COc1ccc([C@H](Cc2c(Cl)c[n+]([O-])cc2Cl)OC(=O)c2ccc(CNC[C@@](O)(C(=O)O[C@H]3CN4CCC3CC4)c3ccccc3)s2)cc1OC	8.26
COc1ccc([C@H](Cc2c(Cl)c[n+]([O-])cc2Cl)OC(=O)c2ccc(CNC[C@](O)(C(=O)O[C@H]3CN4CCC3CC4)c3ccccc3)s2)cc1OC	8.26
